Data from US20040072240A1.

Biological target: HLA A2.1 molecule (human)
Assay: T2 cells, flow cytometry (BB7.2); reference HIVpol 589

B1: HER-2/neu 466 (peptide)
peptide: ALIHHNTHL
modifications: not checked
RA (relative affinity): 4.8
